Data on two substances can be found in article PMC9080097, “Identification of absorbed constituents and evaluation of the pharmacokinetics of main compounds after oral administration of yindanxinnaotong by UPLC-Q-TOF-MS and UPLC-QqQ-MS” (RSC Advances, 2018).

The nature of data set [1]: Pharmacokinetics study in rats after oral administration of YDXNT (UPLC-QqQ-MS of plasma). Particulars: rat plasma, oral YDXNT 4.8 g kg^−1 d^−1 (2.4 g kg^−1 in source); for C max / T max: n = 6, mean ± SD; for AUC0–INF / MRT / T 1/2: n = 6, non-compartmental; for AUC0–t: n = 6, sampling to 24 h, non-compartmental.
Data set [2] can be described thus: Stability of the analytes in rat plasma QC samples (short-term, autosampler, freeze-thaw, long-term). Particulars: n = 6.
The mark [3] stands for this setting: 1 ng mL^−1, -20°C for four weeks.
Setting [4] is: 1 ng mL^−1, room temperature for 6 h before sample preparation.
Where [5] appears, read: 1 ng mL^−1, room temperature for 12 h in the autosampler after sample preparation.
[6] abbreviates: 1 ng mL^−1, three freeze-thaw cycles -20°C to ambient temperature.
[7] abbreviates: 10 ng mL^−1, -20°C for four weeks.
[8] abbreviates: 10 ng mL^−1, room temperature for 6 h before sample preparation.
Where [9] appears, read: 10 ng mL^−1, room temperature for 12 h in the autosampler after sample preparation.
[10] abbreviates: 10 ng mL^−1, three freeze-thaw cycles -20°C to ambient temperature.
Where [11] appears, read: 100 ng mL^−1, -20°C for four weeks.
The mark [12] stands for this setting: 100 ng mL^−1, room temperature for 6 h before sample preparation.
Where [13] appears, read: 100 ng mL^−1, room temperature for 12 h in the autosampler after sample preparation.
Setting [14] is: 100 ng mL^−1, three freeze-thaw cycles -20°C to ambient temperature.

In data set [1], ginkgolide B [GB] returned a C max of 76.54 ± 15.43 ng/mL. Besides, the T max in data set [1] worked out at 1.00 ± 0.35 h. Besides, the “AUC0–INF” value in data set [1] stood at 691.00 ± 96.83. Besides, the MRT in data set [1] is given as 10.58 ± 2.63 h. Besides, the “T 1/2” value in data set [1] is reported as 7.84 ± 3.53 h. Further, the “AUC0–t” value in data set [1] came out at 610.18 ± 91.45. The “Long-term stability Accuracy” value was determined as 98.45 ± 5.75% in data set [2] (setting [3]), 95.72 ± 6.59% in data set [2] (setting [7]) and 97.38 ± 4.39% in data set [2] (setting [11]). Further, the “Short-term stability Accuracy” value in data set [2] (setting [4]) worked out at 96.95 ± 2.87%; in data set [2] (setting [8]), 98.25 ± 5.91%; in data set [2] (setting [12]), 98.74 ± 4.06%. The “Autosampler stability Accuracy” value was found to be 101.66 ± 4.73% in data set [2] (setting [5]), 95.45 ± 5.97% in data set [2] (setting [9]) and 99.11 ± 7.23% in data set [2] (setting [13]). For the same substance, the “Freeze–thaw strability (three cycles) Accuracy” value came out at 96.53 ± 5.48% in data set [2] (setting [6]), 97.82 ± 4.31% in data set [2] (setting [10]) and 96.55 ± 5.94% in data set [2] (setting [14]).

ginkgolide C [GC]: in data set [1], the C max is 35.35 ± 10.28 ng/mL. In data set [1], this substance had a T max of 1.50 ± 0.23 h. In addition, the “AUC0–INF” value in data set [1] is reported as 297.49 ± 46.59. The MRT in data set [1] amounted to 7.77 ± 2.62 h. Further, the “T 1/2” value in data set [1] came to 5.45 ± 1.48 h. In data set [1], the “AUC0–t” value came to 281.80 ± 41.33. Further, the figures for the “Long-term stability Accuracy” value in data set [2] (setting [3]), in data set [2] (setting [7]) and in data set [2] (setting [11]) were 100.07 ± 10.14%, 100.48 ± 8.62% and 93.97 ± 4.38%, respectively. The “Short-term stability Accuracy” value came out at 100.24 ± 4.70% in data set [2] (setting [4]), 104.11 ± 3.38% in data set [2] (setting [8]) and 94.58 ± 5.63% in data set [2] (setting [12]). For the same substance, the entries for the “Autosampler stability Accuracy” value in data set [2] (setting [5]), in data set [2] (setting [9]) and in data set [2] (setting [13]) were 98.49 ± 6.22%, 102.24 ± 5.11% and 91.17 ± 5.33%, respectively. For the same substance, the “Freeze–thaw strability (three cycles) Accuracy” value in data set [2] (setting [6]) was 104.74 ± 8.47%; in data set [2] (setting [10]) it was 100.15 ± 4.52%; in data set [2] (setting [14]), 96.22 ± 5.73%.
